The source of these data is patent publication US20200397913A1, “AXL-SPECIFIC ANTIBODY-DRUG CONJUGATES FOR CANCER TREATMENT” (GENMAB A/S, priority 2015, published 2020).

SMILES strings stand for the structures. Entries after “also recorded” stand apart in the source; their conditions may differ.

The test system of assay [1] is LXFA 526 tumors. In words: Erlotinib-resistant NSCLC PDX model LXFA 526. It is filed as in vivo, NMRI nu/nu mice. Particulars: LXFA 526, 50 mg/kg daily for 14 days.
Assay [2] concerns LU0858 tumors. In words: Erlotinib-resistant NSCLC PDX model LU0858. It is filed as in vivo, BALB/c nude mice. Particulars: LU0858, 50 mg/kg daily for 14 days.
Assay [3] relates to LU2511 tumors. In words: Erlotinib-resistant NSCLC PDX model LU2511. It is filed as in vivo, BALB/c nude mice. Particulars: LU2511, 50 mg/kg per os daily for 2 weeks.
In assay [4] the test system is LXFA 677_3 tumors. In words: NSCLC PDX model LXFA 677_3 with acquired resistance to erlotinib. Type of assay: in vivo, NMRI nu/nu mice. Particulars: LXFA 677_3, 50 mg/kg daily for 14 days.
Assay [5] has as its system LU1868 tumors. In words: Erlotinib-resistant NSCLC PDX model LU1868. It is filed as in vivo, BALB/c nude mice. Particulars: LU1868, 50 mg/kg daily for 14 days.
For assay [6], the system named is LXFA 677 tumors. In words: NSCLC PDX model LXFA 677. Type of assay: in vivo, NMRI nu/nu mice. Particulars: LXFA 677, 50 mg/kg daily for 14 days.

Turning to `C#Cc1cccc(Nc2ncnc3cc(OCCOC)c(OCCOC)cc23)c1` [erlotinib, reference compound], the “effect of erlotinib on tumor growth / Erlotinib resistance” value in assay [1] is “had no effect on tumor growth”; in assay [2] it was “had no effect on tumor growth”; in assay [3] it was “did not induce anti-tumor activity”; in assay [4], “had no effect on tumor growth”; in assay [5], “had no effect on tumor growth”; in assay [6], “induced partial tumor regression; also recorded: sensitive”.
